Like-named read-outs stand apart in the source and are kept apart here.
What was measured:
[1] = molecular target: GDP-bound KRAS protein (aa 1-169) G12D/C118A (Homo sapiens (Human), UniProt P01116, C118A/G12D); test: Coupled Nucleotide Exchange Assay (KRAS G12D); assay type: biochemical; conditions: read-out: GDP KRAS G12D 20 h Coupled Exchange IC50 IP; 20 h compound pre-incubation
Method: (§1) Coupled Nucleotide Exchange Assay: Purified GDP-bound KRAS protein (aa 1-169), containing either G12C or G12D, as well as C118A amino acid substitutions and an N-terminal His-tag, was pre-incubated in assay buffer (25 mM HEPES pH 7.4, 10 mM MgCl2, and 0.01% Triton X-100) with a compound dose-response titration for either 5 min or 20 hours (see Table 15). Following compound pre-incubation, purified SOS protein (aa 564-1049) and GTP (Roche 10106399001) were added to the assay wells and incubated for an additional 30 min. To determine the extent of inhibition of SOS-mediated nucleotide exchange, purified GST-tagged cRAF (aa 1-149), nickel chelate AlphaLISA acceptor beads (PerkinElmer AL108R), and AlphaScreen glutathione donor beads (PerkinElmer 6765302) were added to the assay wells and incubated for 10 minutes. The assay plates were then read on a PerkinElmer EnVision Multilabel Reader, using AlphaScreen® technology, and data were analyzed using a 4-parameter logistic model to calculate IC50 values.

Sequences of proteins named here, by UniProt entry; tags and fusion partners are left off. A line that says so, or that is headed by a name, gives the form on record, which may keep a tag or linker. Residues count along the entry.
UniProt P01116, 1-164 with tags or gaps C118A/G12C limits assumed: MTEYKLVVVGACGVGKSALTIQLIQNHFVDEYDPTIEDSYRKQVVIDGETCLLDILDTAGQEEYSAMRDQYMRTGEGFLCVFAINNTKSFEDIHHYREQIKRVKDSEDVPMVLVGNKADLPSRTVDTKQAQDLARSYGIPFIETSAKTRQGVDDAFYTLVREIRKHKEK
UniProt P01116, 1-164 with tags or gaps C118A/G12D limits assumed: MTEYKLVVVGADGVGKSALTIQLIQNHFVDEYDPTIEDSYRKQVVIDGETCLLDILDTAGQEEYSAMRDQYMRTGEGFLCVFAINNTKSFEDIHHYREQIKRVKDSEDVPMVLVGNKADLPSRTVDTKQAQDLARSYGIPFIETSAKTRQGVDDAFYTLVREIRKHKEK

[2] = molecular target: GDP-bound KRAS protein (aa 1-169) G12C/C118A (Homo sapiens (Human), UniProt P01116, C118A/G12C); test: Coupled Nucleotide Exchange Assay (KRAS G12C); assay type: biochemical
Method: as §1

`Cc1ccnc(C(C)C)c1-n1c(=O)nc(N2CCN(C(=O)COc3c(F)ccc(F)c3F)C[C@@H]2C)c2cc(Cl)c(-c3ccccc3F)nc21` showed an IC50 [1] greater than 250 µM, an IC50 ([2]; read-out: GDP KRAS G12C 5 min Coupled Exchange IC50 IP, 5 min compound pre-incubation) of 38.3 µM and an IC50 ([2]; read-out: GDP KRAS G12C 20 h Coupled Exchange IC50 IP, 20 h compound pre-incubation) of 1.84 µM.
